{"sequences": {"note": "By UniProt entry, the sequences of proteins in these tests, tags left out. Residues count along the entry.", "UniProt P00742, 41-179 limits assumed": "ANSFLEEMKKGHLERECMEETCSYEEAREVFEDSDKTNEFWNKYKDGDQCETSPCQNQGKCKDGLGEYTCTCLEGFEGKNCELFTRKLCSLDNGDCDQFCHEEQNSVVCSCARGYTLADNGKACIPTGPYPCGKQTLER", "UniProt P00742, 235-488 limits assumed": "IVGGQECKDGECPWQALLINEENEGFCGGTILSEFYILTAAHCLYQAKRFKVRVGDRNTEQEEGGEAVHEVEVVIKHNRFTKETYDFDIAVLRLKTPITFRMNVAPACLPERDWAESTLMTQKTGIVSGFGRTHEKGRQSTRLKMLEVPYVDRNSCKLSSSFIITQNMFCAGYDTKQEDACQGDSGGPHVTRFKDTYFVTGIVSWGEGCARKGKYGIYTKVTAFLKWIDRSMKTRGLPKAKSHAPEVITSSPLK"}, "source": "ChEMBL document CHEMBL1134132", "about": "“Development of potent and selective factor Xa inhibitors” (Bioorg Med Chem Lett, 2001)", "target": "Coagulation factor X (Homo sapiens, UniProt P00742)", "assay": "Inhibitory activity against Coagulation factor X in human plasma", "type": "cell-free", "data": [{"smiles": "Cc1ccc(O)c(-c2cc3cc(C(=N)N)ccc3[nH]2)c1", "values": [{"measurement": "Ki", "result": 4.3, "unit": "µM"}]}]}
